The text below walks through data of PMC5598764.

Test in all cases: stopped-flow fluorescence
Assay [1] addresses Porcine skeletal actin, pyrene-labeled (porcine) (UniProt P68137).
Assay [2] has the same target. This is another data set of the same source.
For assay [3] the target is unchanged. The source holds these as a separate data set.

Like-named read-outs stand apart in the source and are kept apart here.

For the substance “myosin_c-MyBPC complex (porcine cardiac myosin with unphosphorylated porcine c-MyBPC), P79293 1-1935”, the Kd in assay [1] worked out at 6.79 µM; in assay [2], 16.4 µM; in assay [3] it was 11.5 µM.
For the substance “myosin_c-MyBPC.PKA complex (porcine cardiac myosin with PKA-phosphorylated porcine c-MyBPC), P79293 1-1935”, the results for the kon in assay [1], in assay [2] and in assay [3] were 0.33 M⁻¹ s⁻¹, 0.32 M⁻¹ s⁻¹ and 0.33 M⁻¹ s⁻¹, respectively.
